Yeast mating assay 1: variants of the scFv Ab-14

Target: peptide PDVDLGDISGINAS, taken from heptad repeat 2 (HR2) of SARS-CoV-2 spike.

Each scFv is VH, a 15-residue (Gly4Ser)3 linker, VL, as in the parent Ab-14, and differs from it in the CDRs of the heavy chain only.
VH: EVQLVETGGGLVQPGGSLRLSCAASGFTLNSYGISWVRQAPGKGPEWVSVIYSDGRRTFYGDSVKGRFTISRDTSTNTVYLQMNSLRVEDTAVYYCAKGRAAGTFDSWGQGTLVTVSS
VL: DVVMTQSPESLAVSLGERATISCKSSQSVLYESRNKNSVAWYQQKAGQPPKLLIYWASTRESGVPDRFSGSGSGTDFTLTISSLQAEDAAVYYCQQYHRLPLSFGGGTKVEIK

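The parent was found by panning a naive human phage display library on the peptide. Variants in AAYL49 differ from the parent at up to three CDR positions; double and triple changes were sampled at random. Affinity was read by AlphaSeq, a pooled yeast mating assay with surface-displayed partners. Mating (16 h, 30 °C) was followed by selection of diploids and sequencing of their barcodes. The ratio of observed to expected reads was calibrated, replicate by replicate, on BCL2-family standards whose Kd was known from biolayer interferometry. There are three technical replicates.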

Variants are written as CDR1, CDR2 and CDR3 of the heavy chain (limits as in the source). Parent: GFTLNSYGIS, VIYSDGRRTFYGDSVK, GRAAGTFDS.
All variants listed here change S107 of the VH, counted from its first residue.
Each Kd is an estimate from the mating assay, the geometric mean of the replicates in which the pair was seen; lower is stronger.
An entry "nd" has no value in the source: the pair was not observed among the diploids in any replicate. This suggests poor binding but is not conclusive.
Empty control strains, which show no peptide, gave a signal in 15% of pairings with library AAYL49; the median was 11 µM and 95% of these signals were weaker than 680 nM. No background was subtracted.

CDR-H1,CDR-H2,CDR-H3,Kd,detected
GFDLNSYGIS,VIRSDGRRTFYGDSVK,GRAAGTFDH,nd,0/3
GFTLFSYGIS,VIYSQGRRTFYGDSVK,GRAAGTFDP,nd,0/3
GFTLNSYGIS,VIYSDYRRTFYGDSVK,VRAAGTFDG,2.5 µM,1/3
GFTLNSYGIS,VIYSDGRRTFYGDSVK,WRAAGTFDH,2.7 µM,1/3
WFTLNSYGIS,VIYSDGPRTFYGDSVK,GRAAGTFDG,100 µM,1/3
GFSLNSYGIS,VIYSDGCRTFYGDSVK,GRAAGTFDD,11 nM,3/3
GFTLNSQGIS,VIYSDGRRTFYGDSVK,GRAAGTFDG,nd,0/3
GFTLNSYGIS,VIYSMGRRTFYGDSVK,GRGAGTFDP,20 µM,1/3
GFTLNSYGIS,VIYSDGRRTFYGDSVK,GRAAGTRDR,74 nM,3/3
GFTLNSYGIS,VIYSDGRRTFYGASVK,GRNAGTFDG,830 nM,1/3
GFTLNSYGIV,VLYSDGRRTFYGDSVK,GRAAGTFDA,nd,0/3
GHTLNSYGIS,VIYSDGRRTFYGDSVK,GRAAGAFDY,8.6 µM,2/3
GFTLNSYGIS,VIYSDGRRTFYRDSVK,GRAAGTFDN,240 nM,3/3
GFTLNSYGIS,VIYSDGRRTFYGDSVK,GRAAGTFDA,9.8 nM,3/3
PFTLRSYGIS,VIYSDGRRTFYGDSVK,GRAAGTFDG,nd,0/3
GFTLNSWGIS,VIYSDGRRTFYGDSVK,GRAAGRFDY,300 µM,1/3
GFTLNSYGIS,VVYSGGRRTFYGDSVK,GRAAGTFDL,nd,0/3
GFTLNSYGKS,VHYSDGRRTFYGDSVK,GRAAGTFDN,nd,0/3
GFTLNSYGIS,NIYSDGRRTFYGDSVK,GRFAGTFDC,nd,0/3
DFTLNSYGIS,VIYSDGRHTFYGDSVK,GRAAGTFDG,120 nM,3/3
GFSLNSYGIS,VIYSDGRRTPYGDSVK,GRAAGTFDF,nd,0/3
GFTLNSYYIS,VIYSDGRRTFYGDSVK,WRAAGTFDK,nd,0/3
GFTLNSYGIS,VIYSDGRRTFYGDCVK,GSAAGTFDK,1.1 µM,3/3
GFTLNSYGID,VIYSDGRRTFYGDSVK,GRAAGTFDE,nd,0/3
GFTLNSYGIS,VLYSDGRRTFLGDSVK,GRAAGTFDW,nd,0/3
GFTLNSEGIS,VIYSDGRVTFYGDSVK,GRAAGTFDR,nd,0/3
GFTLNSYGIS,NIYSDGRRTFYGDSVA,GRAAGTFDQ,6.6 µM,1/3
GGTLNSYGIS,VIYSEGRRTFYGDSVK,GRAAGTFDE,140 µM,1/3
GFTLNSSGIS,VIYSDGRRTFYGDSVK,GRAAGTFDI,nd,0/3
GFTLNSYGIS,VPYSDGRRTFYGDSVK,GRAEGTFDL,nd,0/3
GFTLNSYGIS,VIYSDGRRTFKGDSVK,GRAVGTFDF,2.3 µM,2/3
GFTLNSYGIS,VIYSDGRETFYCDSVK,GRAAGTFDN,120 µM,2/3
GFQLNSPGIS,VIYSDGRRTFYGDSVK,GRAAGTFDH,180 µM,1/3
GFTLNSYSIS,VIYSDGRRTFYGDSVC,GRAAGTFDG,1.1 µM,1/3
GFTLNSYGIS,VIYSDGRRTFYGDSVK,GRMAYTFDP,nd,0/3
GFTLNSYGIS,VIYSDQRRTFDGDSVK,GRAAGTFDC,nd,0/3
GFTLNSYCIS,VIYSDGRRTFFGDSVK,GRAAGTFDI,1.2 mM,2/3
GFTLNSYGIS,VIYSRGRRTFYGDSVK,GRFAGTFDD,nd,0/3
GFTLNSYGIS,VIYTDGRYTFYGDSVK,GRAAGTFDA,230 µM,1/3
GFTLNSYGIS,VIYSDGRRTFYGDSVK,GRKAGTFHE,nd,0/3
GFVLNSYGIS,VIYSDGRRTFYGDSVK,GRAAHTFDQ,80 nM,3/3
GFTLNSYGIS,VIYSDGCRTFYGDSVK,GRAIGTFDM,100 nM,3/3
GFTLNSYGIS,VIYCDGRRTFYGDSVK,GRAAHTFDA,nd,0/3
GFTLNSYGIS,VIYSDGRRTFYGDSVK,GRAAGTFDY,nd,0/3
GFDLNSYGIS,VIYSDGPRTFYGDSVK,GRAAGTFDV,nd,0/3
GFTLNSFGIS,VIYSDGRRTFYGDSVK,GRAAGTWDF,nd,0/3
GFTLNSYGIS,VIYSDGRRTFYGHSVK,HRAAGTFDA,3.4 µM,1/3
GFTLNSYGIS,VIYSYGRRTKYGDSVK,GRAAGTFDP,nd,0/3
GTTLNSYGIS,VIYSDGRRTFYGDSVK,GREAGTFDT,1.5 nM,3/3
GFTLISYGIS,VIYSDGRRTFYGDSVK,GRAAGTFDD,2.4 µM,1/3
GFTLNSYGIS,VIYSDGRRTFYGDSNK,GRAAGTFDM,17 µM,1/3
GFALNSPGIS,VIYSDGRRTFYGDSVK,GRAAGTFDH,84 µM,1/3
GFTLNSYGDS,VIYSDARRTFYGDSVK,GRAAGTFDP,nd,0/3
GFTLNSYGIS,IIESDGRRTFYGDSVK,GRAAGTFDY,10 µM,2/3
GFPLNGYGIS,VIYSDGRRTFYGDSVK,GRAAGTFDI,32 nM,3/3

The closing 8 entries, repeated:

CDR-H1,CDR-H2,CDR-H3,Kd,detected
GFTLNSYGIS,VIYSYGRRTKYGDSVK,GRAAGTFDP,nd,0/3
GTTLNSYGIS,VIYSDGRRTFYGDSVK,GREAGTFDT,1.5 nM,3/3
GFTLISYGIS,VIYSDGRRTFYGDSVK,GRAAGTFDD,2.4 µM,1/3
GFTLNSYGIS,VIYSDGRRTFYGDSNK,GRAAGTFDM,17 µM,1/3
GFALNSPGIS,VIYSDGRRTFYGDSVK,GRAAGTFDH,84 µM,1/3
GFTLNSYGDS,VIYSDARRTFYGDSVK,GRAAGTFDP,nd,0/3
GFTLNSYGIS,IIESDGRRTFYGDSVK,GRAAGTFDY,10 µM,2/3
GFPLNGYGIS,VIYSDGRRTFYGDSVK,GRAAGTFDI,32 nM,3/3

Parent in this assay: reference entry 4.4 nM, copy in this library 13 µM (one replicate of three).

The measurements come from Engelhart et al. 2022 (doi:10.1038/s41597-022-01779-4) through the FLAb antibody collection.